This series is described as follows: Stability after exposure to light and temperature, by UPLC MS. It counts as physicochemical. As for the experimental part: The products were exposed to daylight and to ambient temperature.
The reference samples for their part are stored cool (2°-8° C.), protected from light by aluminum paper and under inert gas for the solid product.

Where only a bound is given, the exact number is not on record here.

Regarding “salt of metformin and of 2-[2,6 dimethyl-4-[3-[4-(methylthio)phenyl]-3-oxo-1(E)-propenyl]phenoxyl]-2-methylpropanoic acid [Elafibranor (GFT505) metformin salt]”, the Degradation products detected (after 14 days of storage, UPLC MS) is < 5%. Further, the “Change in colouring of the powder” value (powder exposed to daylight, yellow into darker yellow) is recorded as “appreciable change in colouring”.

For the origin of these results see US20200023067A1, “DUAL-ACTION ELAFIBRANOR METFORMIN SALT FOR TREATING OBESITY ASSOCIATED WITH NON-ALCOHOLIC STEATOHEPATITIS (NASH) AND […]” (NASHPHARM, priority 2016, published 2020).
